## Binding of CDR-mutated scFvs to a peptide of the spike HR2 region

Target peptide (SARS-CoV-2 spike, HR2 region): PDVDLGDISGINAS

Parent: Ab-14, a human scFv built as VH, a (GGGGS)3 linker, VL. Only the CDRs of the light chain vary.
VH: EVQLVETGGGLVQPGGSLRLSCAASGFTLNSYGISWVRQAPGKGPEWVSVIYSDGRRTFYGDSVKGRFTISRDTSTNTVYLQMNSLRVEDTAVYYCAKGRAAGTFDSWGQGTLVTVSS
VL: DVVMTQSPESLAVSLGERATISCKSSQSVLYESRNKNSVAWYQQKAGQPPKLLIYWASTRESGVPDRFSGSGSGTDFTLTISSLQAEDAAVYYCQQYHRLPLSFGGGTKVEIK

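The starting antibody came from a phage panning campaign against this peptide. This is the validation round: designs drawn from the data on random variants, tested in the same kind of assay. Group labels follow the data file (Ctrl: baseline library sampled from a position-specific scoring matrix, with some repeated check sequences; En: ensemble of fine-tuned language models; GP: Gaussian process model; HC: hill climbing; Gen: genetic algorithm; Gibbs: Gibbs sampling; a sequence that several methods proposed may carry one label only). AlphaSeq pools MATa yeast showing the antibodies with MATalpha yeast showing the peptide. Mating (16 h, 30 °C) was followed by selection of diploids and sequencing of their barcodes. Scores were corrected for input abundance and mapped to Kd with protein pairs of known affinity run in the same pool. There are six technical replicates.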

The parent's light chain CDRs are KSSQSVLYESRNKNSVA, WASTRES, QQYHRLPLS; each variant's own CDRs replace them letter for letter. The Kd shown is the geometric mean over detected replicates; a lower Kd is a better binder. Where no diploid with the target was found in any replicate, the entry reads "nd": below detection, most likely a poor binder, though not proof of it. Empty control strains, which show no peptide, gave a signal in 4% of pairings with all light chain designs; the median was 430 nM and 95% of these signals were weaker than 38 nM. No background was subtracted.

{"CDR-L1": "RLHAYTQGFWRAMQNIA", "CDR-L2": "DISYRVT", "CDR-L3": "QQYGRLPLS", "group": "En_Gibbs", "Kd (apparent)": "95 nM", "detected": "5 of 6"}
{"CDR-L1": "KLTQTMRFEQKKKNNIA", "CDR-L2": "EVTTRTK", "CDR-L3": "QQYNRLPLA", "group": "En_Gen", "Kd (apparent)": "440 nM", "detected": "5 of 6"}
{"CDR-L1": "KVPGSNDYESRNKNSVA", "CDR-L2": "EASTREQ", "CDR-L3": "QDYHRLPLS", "group": "GP_Gibbs", "Kd (apparent)": "1.9 nM", "detected": "6 of 6"}
{"CDR-L1": "KMLQGVLYESRNKNSVA", "CDR-L2": "GASTRES", "CDR-L3": "QQYHRLPLS", "group": "GP_HC", "Kd (apparent)": "1.4 nM", "detected": "6 of 6"}
{"CDR-L1": "MVTQMAMSGMSNKRSVA", "CDR-L2": "NAETREH", "CDR-L3": "QQYHRLPLI", "group": "En_Gen", "Kd (apparent)": "3.1 nM", "detected": "6 of 6"}
{"CDR-L1": "KSSYSVLYESRNKNSVA", "CDR-L2": "WASTRIS", "CDR-L3": "NQYHRLPLC", "group": "Ctrl", "Kd (apparent)": "nd", "detected": "0 of 6"}
{"CDR-L1": "HITYGMMVHGRHGSSIA", "CDR-L2": "QAEERAK", "CDR-L3": "QQYDRLPLA", "group": "En_Gen", "Kd (apparent)": "19 nM", "detected": "6 of 6"}
{"CDR-L1": "HFSQVTMYGLWNKNSVA", "CDR-L2": "QTSTREE", "CDR-L3": "QQYDRLPLS", "group": "En_HC", "Kd (apparent)": "7.4 nM", "detected": "6 of 6"}
{"CDR-L1": "KSSQSPLYESRNKNSVA", "CDR-L2": "WASTRES", "CDR-L3": "QQVHRLPLS", "group": "Ctrl", "Kd (apparent)": "nd", "detected": "0 of 6"}
{"CDR-L1": "KLQQSWEYESRNSNNVA", "CDR-L2": "QASTRMS", "CDR-L3": "QQYHRLPLS", "group": "GP_Gibbs", "Kd (apparent)": "400 pM", "detected": "6 of 6"}
{"CDR-L1": "TLHANIEYGGGMWSSIA", "CDR-L2": "DNVQRAN", "CDR-L3": "QQYQRLPLG", "group": "En_Gibbs", "Kd (apparent)": "15 nM", "detected": "6 of 6"}
{"CDR-L1": "KSSQSVLEESRNSNSVA", "CDR-L2": "WASTRES", "CDR-L3": "QQYHRLPLS", "group": "Ctrl", "Kd (apparent)": "11 nM", "detected": "6 of 6"}
{"CDR-L1": "KSSTSVLYESRNKNSVA", "CDR-L2": "SASTRES", "CDR-L3": "QSYHRLPLS", "group": "Ctrl", "Kd (apparent)": "1.5 nM", "detected": "6 of 6"}
{"CDR-L1": "KLSQSVLYEPTNSQSVA", "CDR-L2": "DASTRYS", "CDR-L3": "QQYHRLPLS", "group": "GP_Gibbs", "Kd (apparent)": "900 pM", "detected": "6 of 6"}
{"CDR-L1": "KLEQSVLYESRNKNSVA", "CDR-L2": "WASTRES", "CDR-L3": "QQYHRLPLS", "group": "Ctrl", "Kd (apparent)": "3.0 nM", "detected": "6 of 6"}
{"CDR-L1": "KLQQSVLQLWRNANNVA", "CDR-L2": "QASHRES", "CDR-L3": "QQYHRLPLS", "group": "GP_Gibbs", "Kd (apparent)": "1.3 nM", "detected": "6 of 6"}
{"CDR-L1": "ILSQMMLTAGNKHSSVA", "CDR-L2": "QANNRTD", "CDR-L3": "QQYHRLPLS", "group": "En_HC", "Kd (apparent)": "26 nM", "detected": "6 of 6"}
{"CDR-L1": "KSSQSELYESVNKNSVA", "CDR-L2": "HASTRES", "CDR-L3": "QQYHRLPLS", "group": "GP_HC", "Kd (apparent)": "2.3 nM", "detected": "6 of 6"}
{"CDR-L1": "KLQQSVGYESRNKNSVA", "CDR-L2": "QASTRES", "CDR-L3": "QQYHRLPLS", "group": "GP_Gen", "Kd (apparent)": "1.5 nM", "detected": "6 of 6"}
{"CDR-L1": "KYEMQELQEQRNKNSVA", "CDR-L2": "NASTRES", "CDR-L3": "QQYHRLPLS", "group": "GP_Gibbs", "Kd (apparent)": "970 pM", "detected": "6 of 6"}
{"CDR-L1": "KISQSNLYESRNKNSVA", "CDR-L2": "WASTRES", "CDR-L3": "QQYHRLPLS", "group": "Ctrl", "Kd (apparent)": "17 nM", "detected": "6 of 6"}
{"CDR-L1": "QFDLFENYQGMQGANIA", "CDR-L2": "GATNRHT", "CDR-L3": "QQYQKLPLS", "group": "En_Gibbs", "Kd (apparent)": "6.2 nM", "detected": "6 of 6"}
{"CDR-L1": "HLSMSVDLESVHKNSIA", "CDR-L2": "DLMTRES", "CDR-L3": "QQYHRLPLS", "group": "En_HC", "Kd (apparent)": "800 pM", "detected": "6 of 6"}
{"CDR-L1": "TVSQVHEMLSHAKNSVA", "CDR-L2": "DMNTRES", "CDR-L3": "QQYDRLPLS", "group": "En_HC", "Kd (apparent)": "14 nM", "detected": "6 of 6"}
{"CDR-L1": "KLSQSVMGGSRNKCSVA", "CDR-L2": "NASQREQ", "CDR-L3": "QQYHRLPLS", "group": "GP_Gibbs", "Kd (apparent)": "1.7 nM", "detected": "6 of 6"}

Extract of 3 entries:

CDR-L1,CDR-L2,CDR-L3,group,Kd (apparent),detected
KSSQSVLEESRNSNSVA,WASTRES,QQYHRLPLS,Ctrl,11 nM,6 of 6
HLSMSVDLESVHKNSIA,DLMTRES,QQYHRLPLS,En_HC,800 pM,6 of 6
KISQSNLYESRNKNSVA,WASTRES,QQYHRLPLS,Ctrl,17 nM,6 of 6

The authors' rule: three or more of the six replicates give a measured affinity, fewer mean a poor binder. The parent sequence was in this pool as ten entries: three were never detected, three once, and four in most replicates, with averages from 2.2 nM to 240 nM. Values of this round are not directly comparable with the first-round values of the same sequences.

Reference: Li et al. 2023, doi:10.1038/s41467-023-39022-2. File: FLAb, binding data.